Values quoted from earlier work, collected in patent EP1570862A1, “Highly soluble binary cyclodextrin inclusion complexes” (priority 2004, dated 2005).

Conditions: cited from earlier work

## γ-cyclodextrin
  water solubility: 23.2 g/100 ml
